# Laboratory results: US9085549B2, “Compounds for the treatment of neurodegenerative diseases” (ProteoTech Inc., priority 2011, dated 2015)
# Columns and labels:
# α-synuclein fibrils [1] = molecular target: T1, α-synuclein fibrils (Homo sapiens (Human), UniProt P37840); assay: Thioflavin T fluorometry: disruption/disaggregation of pre-formed α-synuclein fibrils; assay type: biochemical; conditions: 48 h, read-out: Max % Decrease
# Procedure: The biological activity of the compounds provided herein as disruptors/inhibitors of Parkinson's disease α-synuclein fibrils was assessed by determining the efficacy of the compounds to cause a disassembly/disruption of pre-formed Parkinson's disease α-synuclein fibrils. In one study, Thioflavin T fluorometry was used to determine the effects of the compounds, and […]).
# In one study, Thioflavin T fluorometry was used to determine the effects of the compounds on α-synuclein fibrils. In addition to test compounds, this experiment included a positive control compound and a negative control compound for reference.
# For each compound, the % inhibition of Thioflavin T fluorescence (i.e. the decrease compared to control reactions containing α-synuclein alone) was plotted against the log of the concentration of the test compound (expressed as mole ratio relative to α-synuclein).
# α-synuclein = α-synuclein (Homo sapiens (Human), UniProt P37840); assay: Circular dichroism spectroscopy: inhibition of α-synuclein β-sheet formation; assay type: biochemical; conditions: 24 h, read-out: Max % Inhibition
# Procedure: For this purpose, α-synuclein was obtained from rPeptide as a lyophilized salt in 1 mg aliquots. Buffer components and other solvents were obtained from Sigma as A.C.S. Reagent grade or higher. […] After 24 hours, reactions were diluted 20-fold in PBS and CD spectra for each reaction were acquired on a Jasco J-810 spectropolarimeter using a 0.1 cm path length cell. All spectra were recorded with a step size of 0.1 nm, a bandwidth of 1 nm, and an α-synuclein concentration of 0.05 mg/ml. The spectra were trimmed at the shortest wavelength that still provided a dynode voltage less than 600V. The trimmed spectra were then subjected to a data processing routine beginning with noise reduction by Fourier transform followed by subtraction of a blank spectrum (vehicle only without α-synuclein). These blank corrected spectra were then zeroed at 260 nm and the units converted from millidegrees to specific ellipticity.
# These percent β-sheet values were then used to provide the respective relative % inhibition of β-sheet induced by the compounds at given molar ratio of test compound:α-synuclein.
# α-synuclein fibrils [2] = molecular target: T1, α-synuclein fibrils; assay: biochemical; conditions: 48 h, read-out: Max % Decrease
smiles,measurement,setting,value
Oc1ccc(-c2cc(Br)c(-c3ccc(O)c(O)c3)s2)cc1O [SA-59],Emax,α-synuclein fibrils [1],96%
same,Emax,α-synuclein,99%
same,Emax,α-synuclein fibrils [2],85%
